Results published in publication doi:10.1101/2020.10.13.337410v3, “Agonist efficiency from concentration-response curves: structural implications and applications” (biorxiv, 2021).

Sequences of proteins named here, by UniProt entry; tags and fusion partners are left off. A change or cut given only in a name is not applied to a line headed by its entry. Residues count along the entry.
UniProt P02716, 25-520: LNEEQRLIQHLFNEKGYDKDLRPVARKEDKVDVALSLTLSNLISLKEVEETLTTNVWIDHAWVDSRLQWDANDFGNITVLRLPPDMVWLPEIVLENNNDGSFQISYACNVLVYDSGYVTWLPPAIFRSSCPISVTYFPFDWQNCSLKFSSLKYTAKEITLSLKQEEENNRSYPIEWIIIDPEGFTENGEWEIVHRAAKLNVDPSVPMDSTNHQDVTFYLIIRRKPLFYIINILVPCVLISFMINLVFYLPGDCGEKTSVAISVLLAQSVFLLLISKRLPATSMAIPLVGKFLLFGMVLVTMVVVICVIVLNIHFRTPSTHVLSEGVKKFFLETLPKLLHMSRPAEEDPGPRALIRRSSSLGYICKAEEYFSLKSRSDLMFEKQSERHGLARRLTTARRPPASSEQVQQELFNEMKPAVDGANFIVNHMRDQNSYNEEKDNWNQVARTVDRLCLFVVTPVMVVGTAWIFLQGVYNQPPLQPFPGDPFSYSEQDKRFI
UniProt P20782, 21-493: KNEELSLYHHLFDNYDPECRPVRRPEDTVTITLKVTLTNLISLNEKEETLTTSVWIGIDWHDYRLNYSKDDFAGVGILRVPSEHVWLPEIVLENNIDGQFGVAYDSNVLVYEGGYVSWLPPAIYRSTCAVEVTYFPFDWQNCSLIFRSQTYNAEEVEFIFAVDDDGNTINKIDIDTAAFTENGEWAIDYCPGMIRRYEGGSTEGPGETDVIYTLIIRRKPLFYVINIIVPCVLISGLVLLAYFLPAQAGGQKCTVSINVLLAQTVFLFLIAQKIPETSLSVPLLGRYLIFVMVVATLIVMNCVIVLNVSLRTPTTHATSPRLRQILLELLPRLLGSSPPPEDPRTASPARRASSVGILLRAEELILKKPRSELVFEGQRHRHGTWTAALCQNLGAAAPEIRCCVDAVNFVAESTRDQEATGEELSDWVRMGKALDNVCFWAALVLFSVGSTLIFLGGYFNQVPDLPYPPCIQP

Biological target: T1, adult-type mouse AChR (α1-GFP, β, δ, ε), whole-cell (Mus musculus, UniProt P02716+P04756+P20782)
T1 construct: gene Chrna1; alpha1 with GFP encoded between M3 and M4; transient expression in HEK293, GFP-sorted cells; pentamer; no background mutations; with Acetylcholine receptor subunit beta
Test: automated whole-cell patch clamp (IonFlux […]), concentration-response
Assay type: cell-based

For Clc1ccc(C2CC3CCC2N3)cn1 (stereo not shown) [Ebt], the EC50 was 8.42 ± 1 µM.
